From ChEMBL document CHEMBL3286287, “Identification of a new selective dopamine D4 receptor ligand” (Bioorg Med Chem, 2014)

Amino acid sequences for entries named in this document (tags omitted).
UniProt P21728, whole entry: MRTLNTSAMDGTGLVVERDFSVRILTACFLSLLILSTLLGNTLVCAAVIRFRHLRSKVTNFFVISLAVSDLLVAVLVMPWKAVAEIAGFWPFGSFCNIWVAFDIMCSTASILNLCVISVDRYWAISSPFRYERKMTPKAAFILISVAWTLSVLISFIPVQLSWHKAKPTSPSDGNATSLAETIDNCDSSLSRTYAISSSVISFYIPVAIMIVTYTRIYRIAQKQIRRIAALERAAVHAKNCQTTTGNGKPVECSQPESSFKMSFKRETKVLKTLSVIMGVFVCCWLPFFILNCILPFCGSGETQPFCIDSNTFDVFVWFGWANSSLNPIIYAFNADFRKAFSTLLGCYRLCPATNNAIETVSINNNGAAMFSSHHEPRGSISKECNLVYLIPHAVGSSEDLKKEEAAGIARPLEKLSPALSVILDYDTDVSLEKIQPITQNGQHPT
UniProt P21918, whole entry: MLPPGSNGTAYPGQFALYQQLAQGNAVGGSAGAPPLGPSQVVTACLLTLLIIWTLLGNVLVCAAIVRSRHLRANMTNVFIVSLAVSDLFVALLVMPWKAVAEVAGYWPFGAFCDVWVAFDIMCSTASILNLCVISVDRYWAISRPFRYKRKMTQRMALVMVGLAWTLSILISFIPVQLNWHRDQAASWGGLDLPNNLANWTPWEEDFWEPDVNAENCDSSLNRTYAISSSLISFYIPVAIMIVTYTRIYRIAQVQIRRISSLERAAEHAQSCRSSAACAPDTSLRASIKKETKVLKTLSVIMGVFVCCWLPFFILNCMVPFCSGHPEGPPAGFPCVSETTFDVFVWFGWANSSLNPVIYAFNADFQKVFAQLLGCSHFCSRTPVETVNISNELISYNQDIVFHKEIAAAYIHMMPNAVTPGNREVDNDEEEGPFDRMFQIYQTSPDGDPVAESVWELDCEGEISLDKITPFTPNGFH

How the values were obtained:
[1] = target: D(1A) dopamine receptor (Homo sapiens, UniProt P21728); assay: Displacement of [3H]SCH23390 from human dopamine D1 receptor by PDSP assay
[2] = target: D(1B) dopamine receptor (Homo sapiens, UniProt P21918); assay: Displacement of [3H]SCH23390 from human dopamine D5 receptor by PDSP assay

Row | Structure (SMILES) | Ki [1] [nM] | Ki [2] [nM]
1 | Fc1ccc(CCCCN2CCN(c3ccccn3)CC2)cc1 | 238 | –
2 | Fc1ccc(OCCCN2CCN(c3ccccn3)CC2)cc1 | 180 | 2390
